Measurements reported in ChEMBL document CHEMBL1158463 (J Med Chem, 2009).

Columns and labels:
Homo sapiens [1] = organism: Homo sapiens; assay: Selectivity for human cloned ORL1 receptor over human cloned mu opioid receptor
Homo sapiens [2] = organism: Homo sapiens; assay: Selectivity for human cloned ORL1 receptor over human cloned delta opioid receptor
Homo sapiens [3] = organism: Homo sapiens; assay: Selectivity for human cloned ORL1 receptor over human cloned kappa opioid receptor

Measured: fold change (FC)

CCn1c(=O)n([C@@H]2CCN(CC3CCCCCCC3)C[C@H]2CO)c2ccccc21
600: all assays above
